# Source: IntAct's records for PubMed 35512704
# B1: RAC-alpha serine/threonine-protein kinase (Homo sapiens), P31749 (parent)
# chain: MSDVAIVKEGWLHKRGEYIKTWRPRYFLLKNDGTFIGYKERPQDVDQREAPLNNFSVAQCQLMKTERPRPNTFIIRCLQWTTVIERTFHVETPEEREEWTTAIQTVADGLKKQEEEEMDFRSGSPSDNSGAEEMEVSLAKPKHRVTMNEFEYLKLLGKGTFGKVILVKEKATGRYYAMKILKKEVIVAKDEVAHTLTENRVLQNSRHPFLTALKYSFQTHDRLCFVMEYANGGELFFHLSRERVFSEDRARFYGAEIVSALDYLHSEKNVVYRDLKLENLMLDKDGHIKITDFGLCKEGIKDGATMKTFCGTPEYLAPEVLEDNDYGRAVDWWGLGVVMYEMMCGRLPFYNQDHEKLFELILMEEIRFPRTLGPEAKSLLSGLLKKDPKQRLGGGSEDAKEIMQHRFFAGIVWQHVYEKKLSPPFKPQVTSETDTRYFDEEFTAQMITITPPDQDDSMECVDSERRPHFPQFSYSASGTA
# partner: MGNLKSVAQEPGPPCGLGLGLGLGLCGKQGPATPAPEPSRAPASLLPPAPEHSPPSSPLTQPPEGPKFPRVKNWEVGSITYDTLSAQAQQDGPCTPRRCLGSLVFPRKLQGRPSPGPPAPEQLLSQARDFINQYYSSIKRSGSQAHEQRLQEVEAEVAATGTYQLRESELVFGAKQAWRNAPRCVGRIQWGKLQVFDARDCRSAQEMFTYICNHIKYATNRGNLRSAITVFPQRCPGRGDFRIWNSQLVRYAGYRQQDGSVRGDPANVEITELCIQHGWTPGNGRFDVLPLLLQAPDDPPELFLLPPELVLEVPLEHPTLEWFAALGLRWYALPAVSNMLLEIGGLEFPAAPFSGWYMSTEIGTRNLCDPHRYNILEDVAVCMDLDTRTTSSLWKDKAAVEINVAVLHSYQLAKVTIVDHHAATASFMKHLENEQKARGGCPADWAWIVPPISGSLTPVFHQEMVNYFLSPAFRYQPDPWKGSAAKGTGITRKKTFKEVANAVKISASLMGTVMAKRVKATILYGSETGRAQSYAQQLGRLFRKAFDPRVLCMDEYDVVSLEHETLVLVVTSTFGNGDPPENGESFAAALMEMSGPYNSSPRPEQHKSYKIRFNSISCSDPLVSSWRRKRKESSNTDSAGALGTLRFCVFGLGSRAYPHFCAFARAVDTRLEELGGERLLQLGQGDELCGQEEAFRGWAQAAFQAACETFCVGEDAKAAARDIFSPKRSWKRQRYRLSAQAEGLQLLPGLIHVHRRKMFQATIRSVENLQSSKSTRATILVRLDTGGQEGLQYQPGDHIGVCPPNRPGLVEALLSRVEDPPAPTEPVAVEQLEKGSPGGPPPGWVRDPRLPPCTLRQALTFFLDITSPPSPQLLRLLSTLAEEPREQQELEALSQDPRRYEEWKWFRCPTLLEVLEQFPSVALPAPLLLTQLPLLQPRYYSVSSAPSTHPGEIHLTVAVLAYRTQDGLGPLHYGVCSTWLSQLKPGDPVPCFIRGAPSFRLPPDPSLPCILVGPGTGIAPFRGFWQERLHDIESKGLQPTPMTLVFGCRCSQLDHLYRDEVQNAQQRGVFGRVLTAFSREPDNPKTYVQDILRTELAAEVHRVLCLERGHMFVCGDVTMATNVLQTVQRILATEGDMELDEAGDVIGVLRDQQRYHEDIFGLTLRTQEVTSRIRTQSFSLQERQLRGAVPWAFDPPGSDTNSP
# B2: RAC-alpha serine/threonine-protein kinase (Homo sapiens), P31749 (parent)
# chain: B1 chain
# partner: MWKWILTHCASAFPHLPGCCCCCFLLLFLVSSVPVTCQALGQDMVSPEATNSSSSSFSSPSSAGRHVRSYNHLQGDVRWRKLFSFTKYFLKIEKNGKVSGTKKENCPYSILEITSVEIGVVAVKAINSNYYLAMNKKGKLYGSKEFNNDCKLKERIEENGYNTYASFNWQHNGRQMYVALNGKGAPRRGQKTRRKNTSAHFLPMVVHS
# B3: RAC-alpha serine/threonine-protein kinase (Homo sapiens), P31749 (parent)
# chain: B1 chain
# partner: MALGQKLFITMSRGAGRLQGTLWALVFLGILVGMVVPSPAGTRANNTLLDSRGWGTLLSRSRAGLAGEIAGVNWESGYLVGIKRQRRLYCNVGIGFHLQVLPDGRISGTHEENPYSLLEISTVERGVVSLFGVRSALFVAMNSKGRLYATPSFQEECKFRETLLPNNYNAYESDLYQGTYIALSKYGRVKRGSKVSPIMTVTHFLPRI
# B4: RAC-alpha serine/threonine-protein kinase (Homo sapiens), P31749 (parent)
# chain: B1 chain
# partner: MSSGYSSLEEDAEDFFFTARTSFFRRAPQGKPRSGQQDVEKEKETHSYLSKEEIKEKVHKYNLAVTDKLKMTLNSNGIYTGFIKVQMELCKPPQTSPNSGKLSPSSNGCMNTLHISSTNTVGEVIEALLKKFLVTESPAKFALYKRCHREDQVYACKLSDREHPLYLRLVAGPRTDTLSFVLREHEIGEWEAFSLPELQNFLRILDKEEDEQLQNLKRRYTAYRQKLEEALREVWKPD
# B5: RAC-alpha serine/threonine-protein kinase (Homo sapiens), P31749 (parent)
# chain: B1 chain
# partner: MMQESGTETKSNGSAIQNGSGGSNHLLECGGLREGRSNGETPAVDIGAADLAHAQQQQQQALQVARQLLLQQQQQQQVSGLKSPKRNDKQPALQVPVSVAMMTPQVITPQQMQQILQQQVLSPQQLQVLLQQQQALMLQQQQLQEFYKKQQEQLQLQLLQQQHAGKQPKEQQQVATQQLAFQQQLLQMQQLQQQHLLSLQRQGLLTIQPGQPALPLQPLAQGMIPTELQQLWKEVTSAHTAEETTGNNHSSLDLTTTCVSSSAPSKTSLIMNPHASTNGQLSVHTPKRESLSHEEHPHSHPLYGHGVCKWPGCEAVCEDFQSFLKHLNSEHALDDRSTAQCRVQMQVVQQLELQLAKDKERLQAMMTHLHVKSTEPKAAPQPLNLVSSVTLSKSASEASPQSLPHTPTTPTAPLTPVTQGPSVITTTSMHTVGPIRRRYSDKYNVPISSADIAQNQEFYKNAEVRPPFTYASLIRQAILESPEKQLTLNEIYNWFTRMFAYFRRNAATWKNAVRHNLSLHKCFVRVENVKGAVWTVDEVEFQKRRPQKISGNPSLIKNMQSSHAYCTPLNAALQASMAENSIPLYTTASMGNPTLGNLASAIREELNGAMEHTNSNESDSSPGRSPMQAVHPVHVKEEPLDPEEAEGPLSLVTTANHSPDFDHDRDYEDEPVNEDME
# B6: RAC-alpha serine/threonine-protein kinase (Homo sapiens), P31749 (parent)
# chain: B1 chain
# partner: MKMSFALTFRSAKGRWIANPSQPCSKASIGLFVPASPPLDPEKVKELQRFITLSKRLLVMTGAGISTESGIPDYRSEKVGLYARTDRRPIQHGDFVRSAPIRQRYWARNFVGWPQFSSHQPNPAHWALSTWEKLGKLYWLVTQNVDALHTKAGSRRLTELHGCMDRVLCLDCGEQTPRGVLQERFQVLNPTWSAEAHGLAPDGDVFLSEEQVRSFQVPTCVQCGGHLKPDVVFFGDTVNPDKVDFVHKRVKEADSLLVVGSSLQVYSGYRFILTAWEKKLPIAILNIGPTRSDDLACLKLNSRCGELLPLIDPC
# Variants of: B1
# Settings: with nos3_human NOS3, P29474
row,effect of a mutation on the interaction,Variant
1,causing an interaction,E17K

# Variants of: B2
# Settings: with fgf10_human FGF10, O15520
row,effect of a mutation on the interaction,Variant
1,causing an interaction,E17K

# Variants of: B3
# Settings: with fgf6_human FGF6, P10767
row,effect of a mutation on the interaction,Variant
1,causing an interaction,E17K

# Variants of: B4
# Settings: with rasf3_human RASSF3, Q86WH2
row,effect of a mutation on the interaction,Variant
1,causing an interaction,E17K

# Variants of: B5
# Settings: with foxp1_human FOXP1, Q9H334
row,effect of a mutation on the interaction,Variant
1,causing an interaction,E17K

# Variants of: B6
# Settings: with sir4_human SIRT4, Q9Y6E7
row,effect of a mutation on the interaction,Variant
1,causing an interaction,E17K

# Variants of: B6
# Settings: with sir4_human SIRT4, Q9Y6E7
# Remark: another data set of the same source
row,effect of a mutation on the interaction,Variant
1,increasing interaction strength,E17K
